{
  "sequences": {"note": "Sequences of proteins named here, by UniProt entry; tags and fusion partners are left off. A change or cut given only in a name is not applied to a line headed by its entry.", "UniProt P41145": "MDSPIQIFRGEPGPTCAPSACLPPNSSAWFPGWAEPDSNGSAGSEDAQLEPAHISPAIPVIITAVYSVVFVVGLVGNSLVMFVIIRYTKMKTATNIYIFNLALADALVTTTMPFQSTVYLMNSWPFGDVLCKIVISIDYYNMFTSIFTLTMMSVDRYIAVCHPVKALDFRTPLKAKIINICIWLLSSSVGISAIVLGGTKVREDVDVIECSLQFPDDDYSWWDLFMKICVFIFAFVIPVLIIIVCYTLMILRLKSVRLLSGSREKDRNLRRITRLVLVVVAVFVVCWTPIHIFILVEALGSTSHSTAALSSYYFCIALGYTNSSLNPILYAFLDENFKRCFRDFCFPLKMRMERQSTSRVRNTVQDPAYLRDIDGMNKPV", "UniProt P35372, whole entry, looked up": "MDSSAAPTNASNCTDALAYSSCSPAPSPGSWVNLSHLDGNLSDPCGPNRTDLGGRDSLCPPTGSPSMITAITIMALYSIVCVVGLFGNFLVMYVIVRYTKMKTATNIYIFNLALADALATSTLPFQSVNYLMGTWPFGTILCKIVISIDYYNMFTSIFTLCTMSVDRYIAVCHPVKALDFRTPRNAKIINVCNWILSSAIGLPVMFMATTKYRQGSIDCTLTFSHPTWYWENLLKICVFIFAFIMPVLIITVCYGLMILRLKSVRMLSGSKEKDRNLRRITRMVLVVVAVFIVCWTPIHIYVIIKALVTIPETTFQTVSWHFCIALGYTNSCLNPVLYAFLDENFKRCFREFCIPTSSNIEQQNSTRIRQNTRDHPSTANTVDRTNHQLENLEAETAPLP"},
  "source": "ChEMBL document CHEMBL1133607",
  "about": "“Nonpeptide analogues of dynorphin A(1-8): design, synthesis, and pharmacological evaluation of kappa-selective agonists” (J Med Chem, 2000)",
  "key": {"Mus musculus [1]": {"system": "Mus musculus", "test": "Effective dose after 10 mg/kg of nor-BNI administered subcutaneously 10 min before agonist administered in mouse rotarod test; Full antagonism of the pharmacological effect produced by the ED50 dose of the agonist", "conditions": "filed as antagonist"}, "[2]": {"test": "Ratio of rotarod value MPE50/antinociceptive activity MPE50"}, "Mus musculus [3]": {"system": "Mus musculus", "test": "Antinociceptive activity by measuring effective dose after 10 mg/kg of nor-BNI administered subcutaneously 10 min before agonist administered in mouse; Full antagonism of the pharmacological effect produced by the ED50 dose of the agonist", "conditions": "filed as antagonist"}, "Cavia porcellus": {"species": "Cavia porcellus", "test": "Ratio of affinity towards delta to kappa opioid receptor"}, "[4]": {"target": "Opioid receptors; mu & kappa (UniProt P41145+P35372)", "test": "Ratio of affinity towards mu and kappa opioid receptors", "type": "protein assay"}},
  "data": [
    {"compound": "CN(C(=O)Cc1ccc(Cl)c(Cl)c1)C1CCCCC1N1CCCC1.Oc1ccc2c3c1OC1c4[nH]c5c(c4C[C@@]4(O)C(C2)N(CC2CC2)CCC314)C[C@@]1(O)[C@H]2Cc3ccc(O)c4c3C1(CCN2CC1CC1)C5O4", "note": "(some centres not stated)", "values": [
      {"measurement": "ED50", "setting": "Mus musculus [1]", "result": "Antagonist"}
    ]},
    {"compound": "CN(C(=O)Cc1ccc(Cl)c(Cl)c1)C1CCCCC1N1CCCC1", "note": "(configuration not stated)", "values": [
      {"measurement": "Ratio", "setting": "[2]", "result": 10.8}
    ]},
    {"compound": "CCCCC(=N)NCCCCCCNC(=O)C(CC(C)C)NC(=O)CNC(=O)[C@]1(c2ccccc2)CC1CN1CC[C@@]2(C)c3cc(O)ccc3CC1C2C.Oc1ccc2c3c1OC1c4[nH]c5c(c4C[C@@]4(O)C(C2)N(CC2CC2)CCC314)C[C@@]1(O)[C@H]2Cc3ccc(O)c4c3C1(CCN2CC1CC1)C5O4", "note": "(some centres not stated)", "values": [
      {"measurement": "ED50", "setting": "Mus musculus [1]", "result": "Antagonist"},
      {"measurement": "ED50", "setting": "Mus musculus [3]", "result": "Antagonist"}
    ]},
    {"compound": "CCCCC(=N)NCCCCCNC(=O)C(CC(C)C)NC(=O)CNC(=O)[C@]1(c2ccccc2)CC1CN1CC[C@@]2(C)c3cc(O)ccc3CC1C2C", "note": "(some centres not stated)", "values": [
      {"measurement": "Selectivity ratio", "setting": "Cavia porcellus", "result": 408},
      {"measurement": "Selectivity ratio", "setting": "[4]", "result": 375},
      {"measurement": "Ratio", "setting": "[2]", "result": 10.4}
    ]},
    {"compound": "CCCCC(=N)NCCCCCNC(=O)C(CC(C)C)NC(=O)CNC(=O)[C@]1(c2ccccc2)CC1CN1CC[C@@]2(C)c3cc(O)ccc3CC1C2C.Oc1ccc2c3c1OC1c4[nH]c5c(c4C[C@@]4(O)C(C2)N(CC2CC2)CCC314)C[C@@]1(O)[C@H]2Cc3ccc(O)c4c3C1(CCN2CC1CC1)C5O4", "note": "(some centres not stated)", "values": [
      {"measurement": "ED50", "setting": "Mus musculus [1]", "result": "Antagonist"},
      {"measurement": "ED50", "setting": "Mus musculus [3]", "result": "Antagonist"}
    ]},
    {"compound": "CCCCC(=N)NCCCCCCNC(=O)C(CC(C)C)NC(=O)CNC(=O)[C@]1(c2ccccc2)CC1CN1CC[C@@]2(C)c3cc(O)ccc3CC1C2C", "note": "(some centres not stated)", "values": [
      {"measurement": "Selectivity ratio", "setting": "Cavia porcellus", "result": 424},
      {"measurement": "Selectivity ratio", "setting": "[4]", "result": 408},
      {"measurement": "Ratio", "setting": "[2]", "result": 10.8}
    ]}
  ]
}
